{
  "source": "patent US20080262321A1",
  "about": "“Early Detection of Harmful Agents: Method, System and Kit” (published 2008)",
  "system": "E. coli-REC-A bacteria",
  "assay": "Prototype sensing device with E. coli-REC-A biosensors, detected optical signal over time",
  "conditions": "1.5×10^6 or 1.5×10^5 bacteria per reaction chamber, 5 hours, FIGS. 27a-d",
  "data": [
    {"smiles": "CCn1cc(C(=O)O)c(=O)c2ccc(C)nc21", "values": [
      {"measurement": "biochemical reaction (detected optical signal of biosensors)", "setting": "5 ppm NA", "value": "significant biochemical reaction"},
      {"measurement": "biochemical reaction (detected optical signal of biosensors)", "setting": "10 ppm NA", "value": "significant biochemical reaction"}
    ]}
  ]
}
